Source: PMC7984436 (Clinical Pharmacology in Drug Development, 2020)

Type: in vivo, human
Details: Study period 1, day 1: bupropion 150 mg alone, mean ± SD

CC(NC(C)(C)C)C(=O)c1cccc(Cl)c1 (stereo not shown) [Bupropion, bupropion]
t1/2: 26.0 ± 7.3 h
